The results in this text go back to ChEMBL document CHEMBL2073864, “Transport of glyburide by placental ABC transporters: implications in fetal drug exposure” (Placenta, 2006).

By UniProt entry, the sequences of proteins in these tests, tags left out. Where a name states a change or a piece, a line headed by the entry shows the natural chain unless it says otherwise.
UniProt Q9UNQ0: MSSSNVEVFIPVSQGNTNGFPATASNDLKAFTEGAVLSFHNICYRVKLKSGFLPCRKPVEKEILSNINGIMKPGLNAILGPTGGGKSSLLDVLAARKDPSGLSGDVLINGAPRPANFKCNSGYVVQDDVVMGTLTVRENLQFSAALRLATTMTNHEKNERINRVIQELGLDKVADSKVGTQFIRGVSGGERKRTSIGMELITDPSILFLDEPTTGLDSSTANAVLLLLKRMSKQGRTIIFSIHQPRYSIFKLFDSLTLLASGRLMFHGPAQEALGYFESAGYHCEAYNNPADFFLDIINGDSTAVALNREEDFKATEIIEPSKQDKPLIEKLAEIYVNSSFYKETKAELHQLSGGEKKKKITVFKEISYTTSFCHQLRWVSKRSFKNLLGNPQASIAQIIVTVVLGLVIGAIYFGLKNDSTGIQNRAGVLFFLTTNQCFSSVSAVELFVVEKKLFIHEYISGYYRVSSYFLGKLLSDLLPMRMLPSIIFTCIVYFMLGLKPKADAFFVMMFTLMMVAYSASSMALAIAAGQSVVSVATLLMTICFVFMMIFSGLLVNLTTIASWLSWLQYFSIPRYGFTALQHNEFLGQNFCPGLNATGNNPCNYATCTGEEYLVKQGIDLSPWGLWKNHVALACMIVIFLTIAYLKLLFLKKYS

The target in this data set is Broad substrate specificity ATP-binding cassette transporter ABCG2 (Homo sapiens, UniProt Q9UNQ0). Description: TP_TRANSPORTER: inhibition of glyburide accumulation by novobiocin at a concentration of 200uM in BCRP-expressing MCF7-MX cells. It counts as functional, cell-based.

As to `CO[C@@H]1[C@@H](OC(N)=O)[C@@H](O)[C@H](Oc2ccc3c(O)c(NC(=O)c4ccc(O)c(CC=C(C)C)c4)c(=O)oc3c2C)OC1(C)C` [NOVOBIOCIN], the Activity was 3 fold.
